Measurements from US5387578A (priority 1990, dated 1995).

Experiments:
P388/DX Johnson leukemia [1] = system: P388/DX Johnson leukemia
[2] = system: LoVo (human colon adenocarcinoma) cells; assay: cells; details: 4 h, read-out: ID50 (IC50, concentration inhibiting by 50% colony growth), LoVo
P388/DX Johnson leukemia [3] = system: P388/DX Johnson leukemia; remark: listed apart in the source
[4] = system: LoVo (human colon adenocarcinoma) cells
[5] = system: LoVo-Doxo-resistant (LoVo/DX) cells; assay: cells; assay type: cell-based; details: Homo sapiens, 4 h, read-out: ID50 (IC50, concentration inhibiting by 50% colony growth), LoVo/DX
[6] = iv day 1, 0.66 mg/kg as content of 13b (optimal dose)
[7] = iv day 1, 1 mg/kg as content of 13b (not marked optimal)
[8] = iv day 1, 0.09 mg/kg (optimal dose)

For “copolymer of 3-methacryloylamino-2-hydroxypropane and 14-O-{1-[4-(6-methacryloylaminocaproyl)piperazinlyl]-carbonylmethyloxy-cyclohexyl}-3'-deamino-3'[2(S)-methoxy-4-morpholinyl]doxorubicin [1^vii]”, the T/C % (P388/DX Johnson leukemia [1]; [6]) was 233%, the Toxic deaths (P388/DX Johnson leukemia [1]; [6]) was 0/10 and the T/C % (P388/DX Johnson leukemia [1]; [7]) was 177%. The Toxic deaths (P388/DX Johnson leukemia [1]; [7]) was 0/10.

In the case of `COc1cccc2c1C(=O)c1c(O)c3c(c(O)c1C2=O)C[C@@](O)(C(=O)CO)C[C@@H]3O[C@H]1C[C@H](N)[C@H](O)[C@H](C)O1` [Doxorubicin], the IC50 [2] is reported as 0.06 µg/mL (≈ 0.11 µM), the T/C % (P388/DX Johnson leukemia [1]; mouse, in vivo) is reported as 105% and 100% and the “T/C % (median survival time; % over untreated controls)” value (P388/DX Johnson leukemia [3]; mouse, in vivo) is reported as 100%.

With `COc1cccc2c1C(=O)c1c(O)c3c(c(O)c1C2=O)C[C@@](O)(C(=O)COC1(OCC(=O)O)CCCCC1)C[C@@H]3O[C@H]1C[C@H](N2CCO[C@H](OC)C2)[C@H](O)[C@H](C)O1` [Compound 3', 14-O-(1-carboxymethyloxy-cyclohexyl)-3'-deamino-3'-[2(S)-methoxy-4-morpholinyl]doxorubicin] the IC50 [2] was 0.24 µg/mL (≈ 0.3 µM), the “T/C % (median survival time; % over untreated controls)” value (P388/DX Johnson leukemia [3]; mouse, in vivo) was 184% and the Toxic deaths (P388/DX Johnson leukemia [3]; mouse, in vivo) was 0/10. For the same compound, the “cytotoxicity compared with doxorubicin” value [4] was “more cytotoxic than doxorubicin, both on sensitive and resistant cell lines” and the “times less cytotoxic than parent compound 13b” value ([4]; human) was 15-20 times.

For `COc1cccc2c1C(=O)c1c(O)c3c(c(O)c1C2=O)C[C@@](O)(C(=O)CO)C[C@@H]3O[C@H]1C[C@H](N2CCO[C@H](OC)C2)[C@H](O)[C@H](C)O1` [Compound 13b], the IC50 [2] was 0.016 µg/mL (≈ 0.0249 µM), the IC50 [5] was 0.033 µg/mL (≈ 0.0513 µM) and the T/C % (P388/DX Johnson leukemia [1]; iv day 1, 0.076 mg/kg) was 177%. For the same compound, the Toxic deaths (P388/DX Johnson leukemia [1]; iv day 1, 0.076 mg/kg) was 0/28, the T/C % (P388/DX Johnson leukemia [1]; [8]) was 192% and the Toxic deaths (P388/DX Johnson leukemia [1]; [8]) was 0/39. For the same compound, the “T/C % (median survival time; % over untreated controls)” value (P388/DX Johnson leukemia [3]; ip day 1, 0.1 mg/kg) was 136%, the Toxic deaths (P388/DX Johnson leukemia [3]; ip day 1, 0.1 mg/kg) was 0/10 and the “T/C % (median survival time; % over untreated controls)” value (P388/DX Johnson leukemia [3]; ip day 1, 0.125 mg/kg) was 155%. For the same compound, the Toxic deaths (P388/DX Johnson leukemia [3]; ip day 1, 0.125 mg/kg) was 1/10.

Values after ≈ are worked out from the molar mass of the structure shown. Values joined by “and” are separate entries in the source; they are usually repeats but may differ in a detail not shown here. Identical values can stand only once. Like-named read-outs stand apart in the source and are kept apart here.
